# Measurements reported in patent US20140357838A1, “N-Terminally Modified Insulin Derivatives” (Novo Nordisk A/S, priority 2011, published 2014).
# Test: Chemical stability of insulin derivatives in 2 mM phosphate (SEC-HPLC and RP-HPLC)
# Assay type: physicochemical
# Details: 4 weeks 37° C. minus 5° C. start sample; for Chemical degradation (%) (4 weeks 37° C.- 0 weeks 5° C.): pH 7.5, RP-HPLC; for HMWP Formation (%) (4 weeks 37° C.- 0 weeks 5° C.): pH 7.5, SEC-HPLC
# Procedure: Chemical stability of an insulin derivative is assessed after incubating insulin derivative in 2 mM phosphate, pH=7.5 at 37° C. for up to 8 weeks. Formation of high molecular weight products (HMWP) is determined by SEC HPLC analysis after 0, 2, 4 and optionally 8 weeks. The results of the SEC method are given as a difference between HMWP formation at 37° C. and 5° C. start sample as a percentage of total absorbance at 215 nm. Chemical degradation products are determined by RP HPLC analysis after 0, 2, 4 and optionally 8 weeks. The results of the RP method are given as a difference between chemical degradation observed at 37° C. and 5° C. start sample as a percentage of total absorbance at 215 nm.
# • Solvent: 500 mM NaCl, 10 mM NaH2PO4, 5 mM H3PO4, 50% (v/v) 2-propanol • Flow: 0.5 ml/min • Run time: 30 min • UV Detection: 215 nm • Column: Insulin HMWP column from Waters 7.8×300 mm • Temperature: 50° C.
# • Solvent A: 0.09M phosphate buffer pH 3.6 (di-ammoniumhydrogenphosphate), 10% MeCN (v/v) • Solvent B: 80% MeCN (v/v %) • Flow: 0.3 ml/min • Runtime: 33 min • UV Detection: 215 nm • Column: Waters Acquity BEH130 C18 Column 1.7 μm, 150×2.1 mm • Temperature: 50° C. • Gradient: […]
structure (smiles),measurement,value
"CC[C@H](C)[C@H](NC(=O)CN(C)C)C(=O)N[C@H](C(=O)N[C@@H](CCC(=O)O)C(=O)N[C@@H](CCC(N)=O)C(=O)N[C@H]1CSSC[C@@H]2NC(=O)[C@@H]3CSSC[C@H](NC(=O)[C@@H](NC(=O)[C@H](Cc4ccccc4)N(C)C)C(C)C)C(=O)N[C@@H](CCC(N)=O)C(=O)N[C@@H](Cc4c[nH]cn4)C(=O)N[C@@H](CC(C)C)C(=O)N[C@@H](CSSC[C@H](NC1=O)C(=O)N[C@@H]([C@@H](C)O)C(=O)N[C@@H](CO)C(=O)N3)C(=O)NCC(=O)N[C@@H](CO)C(=O)N[C@@H](Cc1c[nH]cn1)C(=O)N[C@@H](CC(C)C)C(=O)N[C@@H](C(C)C)C(=O)N[C@@H](CCC(=O)O)C(=O)N[C@@H](C)C(=O)N[C@@H](CC(C)C)C(=O)N[C@@H](Cc1ccc(O)cc1)C(=O)N[C@@H](CC(C)C)C(=O)N[C@@H](C(C)C)C(=O)N[C@H](C(=O)NCC(=O)N[C@@H](CCC(=O)O)C(=O)N[C@@H](CCCNC(=N)N)C(=O)NCC(=O)N[C@@H](Cc1ccccc1)C(=O)N[C@@H](Cc1c[nH]cn1)C(=O)N[C@@H](Cc1ccc(O)cc1)C(=O)N[C@H](C(=O)N1CCC[C@H]1C(=O)N[C@@H](CCCCNC(=O)COCCOCCNC(=O)COCCOCCNC(=O)CC[C@H](NC(=O)CCCCCCCCCCCCCCCCCCC(=O)O)C(=O)O)C(=O)O)[C@@H](C)O)CSSC[C@@H](C(=O)N[C@@H](CC(N)=O)C(=O)O)NC(=O)[C@H](Cc1ccc(O)cc1)NC(=O)[C@H](CC(N)=O)NC(=O)[C@H](CCC(=O)O)NC(=O)[C@H](CC(C)C)NC(=O)[C@H](CCC(N)=O)NC(=O)[C@H](CCC(=O)O)NC(=O)[C@H](CC(C)C)NC(=O)[C@H](CO)NC2=O)C(C)C [Example 2, A1(N^α,N^α-Dimethyl), A10C, A14E, B1(N^α,N^α-dimethyl), B3C, B25H, B29K(N^εeicosanedioyl-gGlu-2×OEG), desB30 Human Insulin]",Chemical degradation (%) (4 weeks 37° C.- 0 weeks 5° C.),2.5%
"CC[C@H](C)[C@H](NC(=O)CN(C)C)C(=O)N[C@H](C(=O)N[C@@H](CCC(=O)O)C(=O)N[C@@H](CCC(N)=O)C(=O)N[C@H]1CSSC[C@@H]2NC(=O)[C@@H]3CSSC[C@H](NC(=O)[C@@H](NC(=O)[C@H](Cc4ccccc4)N(C)C)C(C)C)C(=O)N[C@@H](CCC(N)=O)C(=O)N[C@@H](Cc4c[nH]cn4)C(=O)N[C@@H](CC(C)C)C(=O)N[C@@H](CSSC[C@H](NC1=O)C(=O)N[C@@H]([C@@H](C)O)C(=O)N[C@@H](CO)C(=O)N3)C(=O)NCC(=O)N[C@@H](CO)C(=O)N[C@@H](Cc1c[nH]cn1)C(=O)N[C@@H](CC(C)C)C(=O)N[C@@H](C(C)C)C(=O)N[C@@H](CCC(=O)O)C(=O)N[C@@H](C)C(=O)N[C@@H](CC(C)C)C(=O)N[C@@H](Cc1ccc(O)cc1)C(=O)N[C@@H](CC(C)C)C(=O)N[C@@H](C(C)C)C(=O)N[C@H](C(=O)NCC(=O)N[C@@H](CCC(=O)O)C(=O)N[C@@H](CCCNC(=N)N)C(=O)NCC(=O)N[C@@H](Cc1ccccc1)C(=O)N[C@@H](Cc1c[nH]cn1)C(=O)N[C@@H](Cc1ccc(O)cc1)C(=O)N[C@H](C(=O)N1CCC[C@H]1C(=O)N[C@@H](CCCCNC(=O)CC[C@H](NC(=O)CCCCCCCCCCCCCCCCC(=O)O)C(=O)O)C(=O)O)[C@@H](C)O)CSSC[C@@H](C(=O)N[C@@H](CC(N)=O)C(=O)O)NC(=O)[C@H](Cc1ccc(O)cc1)NC(=O)[C@H](CC(N)=O)NC(=O)[C@H](CCC(=O)O)NC(=O)[C@H](CC(C)C)NC(=O)[C@H](CCC(N)=O)NC(=O)[C@H](CCC(=O)O)NC(=O)[C@H](CC(C)C)NC(=O)[C@H](CO)NC2=O)C(C)C [Example 3, A1(N^α,N^α-Dimethyl), A10C, A14E, B1(N^α,N^α-dimethyl), B3C, B25H, B29K(N^εoctadecanedioyl-gGlu), desB30 Human Insulin]",HMWP Formation (%) (4 weeks 37° C.- 0 weeks 5° C.),0.7%
"CC[C@H](C)[C@H](NC(=O)CN(C)C)C(=O)N[C@H](C(=O)N[C@@H](CCC(=O)O)C(=O)N[C@@H](CCC(N)=O)C(=O)N[C@H]1CSSC[C@@H]2NC(=O)[C@@H]3CSSC[C@H](NC(=O)[C@@H](NC(=O)[C@H](Cc4ccccc4)N(C)C)C(C)C)C(=O)N[C@@H](CCC(N)=O)C(=O)N[C@@H](Cc4c[nH]cn4)C(=O)N[C@@H](CC(C)C)C(=O)N[C@@H](CSSC[C@H](NC1=O)C(=O)N[C@@H]([C@@H](C)O)C(=O)N[C@@H](CO)C(=O)N3)C(=O)NCC(=O)N[C@@H](CO)C(=O)N[C@@H](Cc1c[nH]cn1)C(=O)N[C@@H](CC(C)C)C(=O)N[C@@H](C(C)C)C(=O)N[C@@H](CCC(=O)O)C(=O)N[C@@H](C)C(=O)N[C@@H](CC(C)C)C(=O)N[C@@H](Cc1c[nH]cn1)C(=O)N[C@@H](CC(C)C)C(=O)N[C@@H](C(C)C)C(=O)N[C@H](C(=O)NCC(=O)N[C@@H](CCC(=O)O)C(=O)N[C@@H](CCCNC(=N)N)C(=O)NCC(=O)N[C@@H](Cc1ccccc1)C(=O)N[C@@H](Cc1c[nH]cn1)C(=O)N[C@@H](Cc1ccc(O)cc1)C(=O)N[C@H](C(=O)N1CCC[C@H]1C(=O)N[C@@H](CCCCNC(=O)COCCOCCNC(=O)COCCOCCNC(=O)CC[C@H](NC(=O)CCCCCCCCCCCCCCCCC(=O)O)C(=O)O)C(=O)O)[C@@H](C)O)CSSC[C@@H](C(=O)N[C@@H](CC(N)=O)C(=O)O)NC(=O)[C@H](Cc1ccc(O)cc1)NC(=O)[C@H](CC(N)=O)NC(=O)[C@H](CCC(=O)O)NC(=O)[C@H](CC(C)C)NC(=O)[C@H](CCC(N)=O)NC(=O)[C@H](CCC(=O)O)NC(=O)[C@H](CC(C)C)NC(=O)[C@H](CO)NC2=O)C(C)C [Example 13, A1(N^α,N^α-Dimethyl), A10C, A14E, B1(N^α,N^α-dimethyl), B3C, B16H, B25H, B29K(N^εoctadecanedioyl-gGlu-2×OEG), desB30 Human Insulin]",HMWP Formation (%) (4 weeks 37° C.- 0 weeks 5° C.),0.5%
"CC[C@H](C)[C@H](NC(=O)CN(C)C)C(=O)N[C@H](C(=O)N[C@@H](CCC(=O)O)C(=O)N[C@@H](CCC(N)=O)C(=O)N[C@H]1CSSC[C@@H]2NC(=O)[C@@H]3CSSC[C@H](NC(=O)[C@@H](NC(=O)CN(C)C)C(C)C)C(=O)N[C@@H](CCC(N)=O)C(=O)N[C@@H](Cc4c[nH]cn4)C(=O)N[C@@H](CC(C)C)C(=O)N[C@@H](CSSC[C@H](NC1=O)C(=O)N[C@@H]([C@@H](C)O)C(=O)N[C@@H](CO)C(=O)N3)C(=O)NCC(=O)N[C@@H](CO)C(=O)N[C@@H](Cc1c[nH]cn1)C(=O)N[C@@H](CC(C)C)C(=O)N[C@@H](C(C)C)C(=O)N[C@@H](CCC(=O)O)C(=O)N[C@@H](C)C(=O)N[C@@H](CC(C)C)C(=O)N[C@@H](Cc1ccc(O)cc1)C(=O)N[C@@H](CC(C)C)C(=O)N[C@@H](C(C)C)C(=O)N[C@H](C(=O)NCC(=O)N[C@@H](CCC(=O)O)C(=O)N[C@@H](CCCNC(=N)N)C(=O)NCC(=O)N[C@@H](Cc1ccccc1)C(=O)N[C@@H](Cc1ccccc1)C(=O)N[C@@H](Cc1ccc(O)cc1)C(=O)N1CCC[C@H]1C(=O)N[C@@H](CCCCNC(=O)COCCOCCNC(=O)COCCOCCNC(=O)CC[C@H](NC(=O)CCCCCCCCCCCCCCCCC(=O)O)C(=O)O)C(=O)O)CSSC[C@@H](C(=O)N[C@@H](CC(N)=O)C(=O)O)NC(=O)[C@H](Cc1ccc(O)cc1)NC(=O)[C@H](CC(N)=O)NC(=O)[C@H](CCC(=O)O)NC(=O)[C@H](CC(C)C)NC(=O)[C@H](CCC(N)=O)NC(=O)[C@H](CCC(=O)O)NC(=O)[C@H](CC(C)C)NC(=O)[C@H](CO)NC2=O)C(C)C [Example 14, A1(N^α,N^α-Dimethyl), A10C, A14E, B1G(N^α,N^α-dimethyl), B3C, desB27, B29K(N^εoctadecanedioyl-gGlu-2×OEG), desB30 Human Insulin]",Chemical degradation (%) (4 weeks 37° C.- 0 weeks 5° C.),9.7%
"CC[C@H](C)[C@H](NC(=O)CN(C)C)C(=O)N[C@H](C(=O)N[C@@H](CCC(=O)O)C(=O)N[C@@H](CCC(N)=O)C(=O)N[C@H]1CSSC[C@@H]2NC(=O)[C@@H]3CSSC[C@H](NC(=O)[C@@H](NC(=O)CN(C)C)C(C)C)C(=O)N[C@@H](CCC(N)=O)C(=O)N[C@@H](Cc4c[nH]cn4)C(=O)N[C@@H](CC(C)C)C(=O)N[C@@H](CSSC[C@H](NC1=O)C(=O)N[C@@H]([C@@H](C)O)C(=O)N[C@@H](CO)C(=O)N3)C(=O)NCC(=O)N[C@@H](CO)C(=O)N[C@@H](Cc1c[nH]cn1)C(=O)N[C@@H](CC(C)C)C(=O)N[C@@H](C(C)C)C(=O)N[C@@H](CCC(=O)O)C(=O)N[C@@H](C)C(=O)N[C@@H](CC(C)C)C(=O)N[C@@H](Cc1ccc(O)cc1)C(=O)N[C@@H](CC(C)C)C(=O)N[C@@H](C(C)C)C(=O)N[C@H](C(=O)NCC(=O)N[C@@H](CCC(=O)O)C(=O)N[C@@H](CCCNC(=N)N)C(=O)NCC(=O)N[C@@H](Cc1ccccc1)C(=O)N[C@@H](Cc1ccccc1)C(=O)N[C@@H](Cc1ccc(O)cc1)C(=O)N1CCC[C@H]1C(=O)N[C@@H](CCCCNC(=O)CC[C@H](NC(=O)CCCCCCCCCCCCCCCCC(=O)O)C(=O)O)C(=O)O)CSSC[C@@H](C(=O)N[C@@H](CC(N)=O)C(=O)O)NC(=O)[C@H](Cc1ccc(O)cc1)NC(=O)[C@H](CC(N)=O)NC(=O)[C@H](CCC(=O)O)NC(=O)[C@H](CC(C)C)NC(=O)[C@H](CCC(N)=O)NC(=O)[C@H](CCC(=O)O)NC(=O)[C@H](CC(C)C)NC(=O)[C@H](CO)NC2=O)C(C)C [Example 9, A1(N^α,N^α-Dimethyl), A10C, A14E, B1G(N^α,N^α-dimethyl), B3C, desB27, B29K(N^εoctadecanedioyl-gGlu), desB30 Human Insulin]",HMWP Formation (%) (4 weeks 37° C.- 0 weeks 5° C.),0.7%
